Conditions: FIG. 3; PLGA/PLA formulation prepared with processing aid (Poloxamer 407); effect of 10 pressure cycles vs no pressure cycling; HEPES buffer pH 7.4, 37° C.

In the case of Bovine Serum Albumin [BSA], the “decrease in the initial burst release of BSA from the formulation” value is reported as “approximately 10%”.
